Target: GPD2 (mitochondrial glycerol-3-phosphate dehydrogenase) (Homo sapiens, UniProt P43304)
Test: GPD2 oxidoreductase, resazurin reduction fluorescence
Conditions: 30 mM glycerol-3-phosphate
Text: GPD2 oxidoreductase, resazurin reduction fluorescence on GPD2 (mitochondrial glycerol-3-phosphate dehydrogenase) | six GPD2 activity inhibitors selected for follow-up analysis are shown

Chains of the proteins cited; added tags and fusions are not shown. Residues count along the entry.
UniProt P43304, 43-727 limits assumed: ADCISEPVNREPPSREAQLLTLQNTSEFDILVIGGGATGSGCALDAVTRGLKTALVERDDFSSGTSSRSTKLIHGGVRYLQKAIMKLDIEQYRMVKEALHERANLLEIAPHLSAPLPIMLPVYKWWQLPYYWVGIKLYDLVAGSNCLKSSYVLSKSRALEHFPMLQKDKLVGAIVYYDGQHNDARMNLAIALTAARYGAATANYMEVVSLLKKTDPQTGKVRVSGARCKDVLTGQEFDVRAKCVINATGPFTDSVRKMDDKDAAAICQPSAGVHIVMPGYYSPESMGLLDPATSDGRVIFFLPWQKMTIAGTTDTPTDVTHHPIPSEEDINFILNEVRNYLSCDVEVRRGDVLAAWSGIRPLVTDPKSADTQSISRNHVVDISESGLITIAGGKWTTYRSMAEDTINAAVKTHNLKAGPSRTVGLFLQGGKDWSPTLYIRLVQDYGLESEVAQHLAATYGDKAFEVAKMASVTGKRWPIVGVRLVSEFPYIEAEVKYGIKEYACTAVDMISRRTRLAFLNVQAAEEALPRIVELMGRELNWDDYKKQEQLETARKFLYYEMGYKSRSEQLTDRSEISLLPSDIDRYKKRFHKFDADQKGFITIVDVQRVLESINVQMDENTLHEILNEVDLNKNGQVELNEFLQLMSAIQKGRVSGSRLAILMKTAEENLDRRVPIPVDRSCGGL

EC50 | SMILES
13.3 µM | O=[N+]([O-])c1ccc(Oc2ccccc2O)c2c1no[n+]2[O-]
8.6 µM | O=Cc1cc(N=Nc2cccc(Cl)c2)ccc1O

Source: article PMC3942692, “Mitochondrial FAD-linked Glycerol-3-phosphate Dehydrogenase: A Target for Cancer Therapeutics” (Pharmaceuticals, 2014)
